Measurements: paper PMC10009755, “Discovery and Characterization of BAY-805, a Potent and Selective Inhibitor of Ubiquitin-Specific Protease USP21” (Journal of Medicinal Chemistry, 2023)
Entries after “also recorded” stand apart in the source; their conditions may differ. Like-named read-outs stand apart in the source and are kept apart here.

Chains of the proteins cited; added tags and fusions are not shown. Lines headed by an entry give the natural chain unless they say otherwise; changes in a name come on top. Residues count along the entry.
UniProt Q9HAZ1: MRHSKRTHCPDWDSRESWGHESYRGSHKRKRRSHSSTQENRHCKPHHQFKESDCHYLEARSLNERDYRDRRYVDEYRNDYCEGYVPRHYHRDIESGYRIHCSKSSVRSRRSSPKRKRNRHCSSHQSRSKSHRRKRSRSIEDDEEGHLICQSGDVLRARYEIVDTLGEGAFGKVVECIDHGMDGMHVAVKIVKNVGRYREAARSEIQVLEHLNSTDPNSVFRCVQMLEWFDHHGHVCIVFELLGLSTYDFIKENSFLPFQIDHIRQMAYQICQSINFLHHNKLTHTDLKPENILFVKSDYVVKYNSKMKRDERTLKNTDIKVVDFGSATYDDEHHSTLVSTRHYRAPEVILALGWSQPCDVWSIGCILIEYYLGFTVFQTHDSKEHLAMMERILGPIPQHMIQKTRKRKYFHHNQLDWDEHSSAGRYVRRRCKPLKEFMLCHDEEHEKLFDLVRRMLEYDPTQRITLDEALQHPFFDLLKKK
UniProt Q96NX5: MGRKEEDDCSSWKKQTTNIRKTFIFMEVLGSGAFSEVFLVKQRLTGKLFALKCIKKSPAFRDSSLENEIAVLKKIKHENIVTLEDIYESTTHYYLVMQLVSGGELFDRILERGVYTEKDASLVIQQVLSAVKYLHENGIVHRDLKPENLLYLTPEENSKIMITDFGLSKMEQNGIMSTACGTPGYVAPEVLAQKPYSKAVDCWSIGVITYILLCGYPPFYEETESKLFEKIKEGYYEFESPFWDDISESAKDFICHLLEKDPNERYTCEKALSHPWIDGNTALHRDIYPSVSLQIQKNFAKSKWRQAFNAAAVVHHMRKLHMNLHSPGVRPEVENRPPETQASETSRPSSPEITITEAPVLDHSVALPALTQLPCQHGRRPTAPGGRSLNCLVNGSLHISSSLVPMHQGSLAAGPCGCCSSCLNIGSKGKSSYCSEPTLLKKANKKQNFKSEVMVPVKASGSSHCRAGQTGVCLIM
UniProt P31751: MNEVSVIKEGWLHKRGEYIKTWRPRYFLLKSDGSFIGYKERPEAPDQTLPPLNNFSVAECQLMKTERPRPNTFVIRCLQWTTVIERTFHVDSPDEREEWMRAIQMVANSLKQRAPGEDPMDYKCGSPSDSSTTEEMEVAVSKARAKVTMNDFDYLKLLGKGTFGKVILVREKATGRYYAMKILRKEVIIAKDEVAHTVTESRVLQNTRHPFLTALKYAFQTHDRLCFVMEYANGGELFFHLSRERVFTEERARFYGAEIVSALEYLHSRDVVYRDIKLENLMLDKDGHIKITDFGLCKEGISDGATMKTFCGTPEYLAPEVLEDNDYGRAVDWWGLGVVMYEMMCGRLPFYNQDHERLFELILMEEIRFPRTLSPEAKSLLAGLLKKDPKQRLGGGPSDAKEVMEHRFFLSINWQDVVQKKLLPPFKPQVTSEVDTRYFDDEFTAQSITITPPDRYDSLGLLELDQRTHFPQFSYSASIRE
UniProt Q93008, whole entry: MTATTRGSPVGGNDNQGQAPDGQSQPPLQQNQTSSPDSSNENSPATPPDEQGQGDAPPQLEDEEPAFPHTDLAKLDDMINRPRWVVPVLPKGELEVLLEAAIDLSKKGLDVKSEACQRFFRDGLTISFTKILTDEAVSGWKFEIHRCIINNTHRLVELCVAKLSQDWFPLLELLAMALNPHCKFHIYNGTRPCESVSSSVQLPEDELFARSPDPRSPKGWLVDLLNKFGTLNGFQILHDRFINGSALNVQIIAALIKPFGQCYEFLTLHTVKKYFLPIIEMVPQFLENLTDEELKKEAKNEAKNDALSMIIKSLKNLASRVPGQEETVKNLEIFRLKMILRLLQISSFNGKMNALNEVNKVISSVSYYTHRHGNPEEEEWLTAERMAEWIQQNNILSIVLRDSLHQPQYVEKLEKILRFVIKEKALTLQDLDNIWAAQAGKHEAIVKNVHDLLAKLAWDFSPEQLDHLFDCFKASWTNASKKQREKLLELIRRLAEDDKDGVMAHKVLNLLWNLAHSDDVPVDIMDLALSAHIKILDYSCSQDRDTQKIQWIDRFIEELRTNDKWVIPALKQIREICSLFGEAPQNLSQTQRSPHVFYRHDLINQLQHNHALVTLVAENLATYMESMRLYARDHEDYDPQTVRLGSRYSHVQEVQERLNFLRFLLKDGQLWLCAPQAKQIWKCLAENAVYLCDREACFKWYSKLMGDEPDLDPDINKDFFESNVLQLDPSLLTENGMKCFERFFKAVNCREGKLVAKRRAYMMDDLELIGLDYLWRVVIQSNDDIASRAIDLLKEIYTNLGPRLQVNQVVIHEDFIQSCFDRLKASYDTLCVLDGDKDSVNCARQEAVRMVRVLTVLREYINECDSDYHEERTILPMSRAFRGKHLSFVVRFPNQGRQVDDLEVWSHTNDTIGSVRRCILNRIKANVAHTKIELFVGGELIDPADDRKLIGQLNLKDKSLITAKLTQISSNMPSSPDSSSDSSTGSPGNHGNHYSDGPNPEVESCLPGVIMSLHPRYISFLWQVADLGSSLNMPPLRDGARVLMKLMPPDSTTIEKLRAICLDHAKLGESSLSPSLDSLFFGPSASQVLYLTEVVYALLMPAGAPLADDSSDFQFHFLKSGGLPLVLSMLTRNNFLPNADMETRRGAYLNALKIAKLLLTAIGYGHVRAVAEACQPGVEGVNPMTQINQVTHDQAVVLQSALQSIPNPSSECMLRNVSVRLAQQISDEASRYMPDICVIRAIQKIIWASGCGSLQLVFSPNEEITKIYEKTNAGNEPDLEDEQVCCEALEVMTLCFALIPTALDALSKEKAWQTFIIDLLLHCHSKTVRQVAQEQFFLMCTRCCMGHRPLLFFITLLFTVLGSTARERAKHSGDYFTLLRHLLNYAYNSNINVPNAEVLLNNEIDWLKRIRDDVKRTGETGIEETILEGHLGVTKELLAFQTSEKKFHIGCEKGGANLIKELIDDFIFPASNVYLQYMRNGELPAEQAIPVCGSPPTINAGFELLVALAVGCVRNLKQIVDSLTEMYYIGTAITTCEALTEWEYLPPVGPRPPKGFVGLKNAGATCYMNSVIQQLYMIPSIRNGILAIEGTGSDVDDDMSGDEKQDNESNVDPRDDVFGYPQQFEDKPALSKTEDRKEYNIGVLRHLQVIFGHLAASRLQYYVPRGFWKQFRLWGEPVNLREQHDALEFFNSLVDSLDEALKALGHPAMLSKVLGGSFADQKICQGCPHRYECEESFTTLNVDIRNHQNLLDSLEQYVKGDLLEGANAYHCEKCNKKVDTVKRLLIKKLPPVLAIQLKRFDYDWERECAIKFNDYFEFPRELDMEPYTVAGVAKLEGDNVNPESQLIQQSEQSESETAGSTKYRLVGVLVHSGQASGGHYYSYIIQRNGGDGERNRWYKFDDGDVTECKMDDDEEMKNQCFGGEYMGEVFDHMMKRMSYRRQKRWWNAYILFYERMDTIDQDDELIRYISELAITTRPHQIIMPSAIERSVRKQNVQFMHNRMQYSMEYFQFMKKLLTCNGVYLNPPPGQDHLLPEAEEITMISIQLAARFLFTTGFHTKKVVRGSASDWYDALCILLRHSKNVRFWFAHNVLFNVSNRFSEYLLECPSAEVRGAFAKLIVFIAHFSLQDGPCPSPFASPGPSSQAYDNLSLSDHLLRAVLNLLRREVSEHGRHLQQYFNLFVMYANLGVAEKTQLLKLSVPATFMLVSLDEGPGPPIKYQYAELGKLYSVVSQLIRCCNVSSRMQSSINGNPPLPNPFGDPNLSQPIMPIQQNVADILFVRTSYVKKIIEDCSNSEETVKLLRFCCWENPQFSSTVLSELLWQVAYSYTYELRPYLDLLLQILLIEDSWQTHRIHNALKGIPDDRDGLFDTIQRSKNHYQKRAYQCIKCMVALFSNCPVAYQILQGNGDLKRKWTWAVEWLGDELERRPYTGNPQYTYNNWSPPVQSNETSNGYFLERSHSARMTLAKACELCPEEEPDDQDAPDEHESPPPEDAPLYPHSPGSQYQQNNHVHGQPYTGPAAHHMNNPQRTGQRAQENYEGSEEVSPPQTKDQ
UniProt Q93008, 1551-1970: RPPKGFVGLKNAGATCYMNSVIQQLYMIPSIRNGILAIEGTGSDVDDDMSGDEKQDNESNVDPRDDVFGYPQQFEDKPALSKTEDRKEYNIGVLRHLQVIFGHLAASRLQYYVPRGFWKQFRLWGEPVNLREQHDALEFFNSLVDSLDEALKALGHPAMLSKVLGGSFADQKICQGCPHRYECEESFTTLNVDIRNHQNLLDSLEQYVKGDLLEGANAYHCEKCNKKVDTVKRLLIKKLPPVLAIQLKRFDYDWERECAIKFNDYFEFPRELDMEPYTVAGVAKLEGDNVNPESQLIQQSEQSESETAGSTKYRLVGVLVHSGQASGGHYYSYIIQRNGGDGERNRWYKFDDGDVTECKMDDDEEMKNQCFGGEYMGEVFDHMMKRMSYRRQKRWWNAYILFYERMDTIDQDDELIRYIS
UniProt Q00535, whole entry: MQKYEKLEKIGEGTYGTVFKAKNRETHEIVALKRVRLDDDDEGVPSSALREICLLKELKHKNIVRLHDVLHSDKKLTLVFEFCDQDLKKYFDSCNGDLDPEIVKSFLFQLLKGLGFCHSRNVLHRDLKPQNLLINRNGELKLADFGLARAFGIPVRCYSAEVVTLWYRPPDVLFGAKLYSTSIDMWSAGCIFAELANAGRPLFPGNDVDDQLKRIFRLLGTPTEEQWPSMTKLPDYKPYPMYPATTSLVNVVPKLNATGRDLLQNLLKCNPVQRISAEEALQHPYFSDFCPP
UniProt P42681: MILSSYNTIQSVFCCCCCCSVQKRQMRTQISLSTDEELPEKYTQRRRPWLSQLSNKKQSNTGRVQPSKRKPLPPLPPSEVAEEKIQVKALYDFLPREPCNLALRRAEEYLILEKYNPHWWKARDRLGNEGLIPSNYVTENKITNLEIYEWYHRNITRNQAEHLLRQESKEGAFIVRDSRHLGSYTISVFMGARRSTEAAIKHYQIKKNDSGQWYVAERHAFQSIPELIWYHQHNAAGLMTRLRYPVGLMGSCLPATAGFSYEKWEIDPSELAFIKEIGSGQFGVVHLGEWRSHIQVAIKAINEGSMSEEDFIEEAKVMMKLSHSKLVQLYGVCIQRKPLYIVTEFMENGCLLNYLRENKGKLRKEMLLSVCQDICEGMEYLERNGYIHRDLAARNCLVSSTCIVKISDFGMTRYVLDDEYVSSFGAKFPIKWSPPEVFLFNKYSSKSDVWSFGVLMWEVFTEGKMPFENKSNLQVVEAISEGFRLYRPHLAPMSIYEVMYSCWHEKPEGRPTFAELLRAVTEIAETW
UniProt P52333: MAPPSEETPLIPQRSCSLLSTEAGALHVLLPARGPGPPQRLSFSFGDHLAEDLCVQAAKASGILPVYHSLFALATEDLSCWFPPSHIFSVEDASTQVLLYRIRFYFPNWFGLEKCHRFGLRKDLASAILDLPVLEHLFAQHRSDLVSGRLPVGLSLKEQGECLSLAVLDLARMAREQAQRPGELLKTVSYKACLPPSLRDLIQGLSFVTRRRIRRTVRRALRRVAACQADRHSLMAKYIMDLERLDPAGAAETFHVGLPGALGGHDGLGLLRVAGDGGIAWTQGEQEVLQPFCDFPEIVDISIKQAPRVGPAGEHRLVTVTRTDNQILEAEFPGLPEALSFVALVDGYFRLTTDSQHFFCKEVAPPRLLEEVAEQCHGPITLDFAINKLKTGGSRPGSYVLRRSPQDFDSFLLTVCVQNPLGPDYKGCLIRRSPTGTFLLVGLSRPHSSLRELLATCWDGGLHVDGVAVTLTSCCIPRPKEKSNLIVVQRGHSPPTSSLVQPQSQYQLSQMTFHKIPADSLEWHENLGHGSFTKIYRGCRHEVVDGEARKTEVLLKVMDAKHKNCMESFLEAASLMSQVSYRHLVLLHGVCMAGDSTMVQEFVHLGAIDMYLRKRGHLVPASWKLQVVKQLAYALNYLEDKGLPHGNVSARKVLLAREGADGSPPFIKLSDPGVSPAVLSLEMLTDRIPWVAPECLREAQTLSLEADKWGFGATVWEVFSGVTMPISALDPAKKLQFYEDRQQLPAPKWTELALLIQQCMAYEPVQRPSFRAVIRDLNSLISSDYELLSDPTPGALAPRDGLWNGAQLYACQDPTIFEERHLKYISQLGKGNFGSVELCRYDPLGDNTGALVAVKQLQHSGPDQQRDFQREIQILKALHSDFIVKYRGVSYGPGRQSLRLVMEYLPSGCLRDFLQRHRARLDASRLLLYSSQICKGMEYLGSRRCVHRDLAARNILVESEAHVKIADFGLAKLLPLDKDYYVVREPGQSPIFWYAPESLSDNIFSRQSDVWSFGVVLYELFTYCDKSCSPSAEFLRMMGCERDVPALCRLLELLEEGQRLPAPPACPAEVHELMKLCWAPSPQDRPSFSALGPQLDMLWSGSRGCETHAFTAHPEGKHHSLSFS
UniProt Q8TAC2: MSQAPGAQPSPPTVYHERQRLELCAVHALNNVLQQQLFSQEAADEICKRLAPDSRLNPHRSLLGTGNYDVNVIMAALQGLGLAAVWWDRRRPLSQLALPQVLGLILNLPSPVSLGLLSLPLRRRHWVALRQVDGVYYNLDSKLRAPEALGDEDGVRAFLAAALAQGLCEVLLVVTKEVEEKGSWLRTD

Tests used:
CaMKIIbeta(h) = CaMKIIbeta(h) (Homo sapiens, UniProt Q13554); assay: biochemical
CLK4(h) = CLK4(h) (Homo sapiens, UniProt Q9HAZ1); assay: biochemical
MST4(h) = MST4(h) (Homo sapiens, UniProt Q9P289); assay: biochemical
MKK3(h) = MKK3(h) (Homo sapiens, UniProt P46734); assay: biochemical
CaMKIgamma(h) = CaMKIgamma(h) (Homo sapiens, UniProt Q96NX5); assay: biochemical
ACK1(h) = ACK1(h) (Homo sapiens, UniProt Q07912); assay: biochemical
Haspin(h) = Haspin(h) (Homo sapiens, UniProt Q8TF76); assay: biochemical
Lck(h) = Lck(h) (Homo sapiens, UniProt P06239); assay: biochemical
MRCKbeta(h) = MRCKbeta(h) (Homo sapiens, UniProt Q9Y5S2); assay: biochemical
PKBbeta(h) = PKBbeta(h) (Homo sapiens, UniProt P31751); assay: biochemical
Flt1(h) = Flt1(h) (Homo sapiens, UniProt P17948); assay: biochemical
CDK7/cyclinH/MAT1(h) = CDK7/cyclinH/MAT1(h) (Homo sapiens, UniProt P50613); assay: biochemical
[1] = tested on: ATPase, Na+/K+, Heart, Pig; conditions: 10 µM
PRK1(h) = PRK1(h) (Homo sapiens, UniProt Q16512); assay: biochemical
Syk(h) = Syk(h) (Homo sapiens, UniProt P43405); assay: biochemical
TBK1(h) = TBK1(h) (Homo sapiens, UniProt Q9UHD2); assay: biochemical
EphA3(h) = EphA3(h) (Homo sapiens, UniProt P29320); assay: biochemical
USP9X [2] = target: T1, USP9X (Homo sapiens, UniProt Q93008); assay: biochemical; conditions: read-out: Activity (% Control)
USP9X [3] = target: T1, USP9X; assay: biochemical; conditions: read-out: Activity (% Control); remark: listed apart in the source
Hck(h) activated = Hck(h) activated (Homo sapiens, UniProt P08631); assay: biochemical
USP17 = USP17 (Homo sapiens, UniProt Q6R6M4); assay: biochemical; conditions: read-out: Activity (% Control)
Mnk2(h) = Mnk2(h) (Homo sapiens, UniProt Q9HBH9); assay: biochemical
WNK3(h) = WNK3(h) (Homo sapiens, UniProt Q9BYP7); assay: biochemical
MARK3(h) = MARK3(h) (Homo sapiens, UniProt P27448); assay: biochemical
PKBgamma(h) = PKBgamma(h) (Homo sapiens, UniProt Q9Y243); assay: biochemical
TLK1(h) = TLK1(h) (Homo sapiens, UniProt Q9UKI8); assay: biochemical
NF-κB activation = assay: NF-κB reporter assay; type: cell-based
Aurora-C(h) = Aurora-C(h) (Homo sapiens, UniProt Q9UQB9); assay: biochemical
TSSK2(h) = TSSK2(h) (Homo sapiens, UniProt Q96PF2); assay: biochemical
CK1delta(h) = CK1delta(h) (Homo sapiens, UniProt P48730); assay: biochemical
CDK5/p25(h) = CDK5/p25(h) (Homo sapiens, UniProt Q00535); assay: biochemical
Txk(h) = Txk(h) (Homo sapiens, UniProt P42681); assay: biochemical
JAK3(h) = JAK3(h) (Homo sapiens, UniProt P52333); assay: biochemical
Plk1(h) = Plk1(h) (Homo sapiens, UniProt P53350); assay: biochemical
Ros(h) = Ros(h) (Homo sapiens, UniProt P08922); assay: biochemical
NEK11(h) = NEK11(h) (Homo sapiens, UniProt Q8NG66); assay: biochemical
FGFR4(h) = FGFR4(h) (Homo sapiens, UniProt P22455); assay: biochemical
JOSD2 = JOSD2 (Homo sapiens, UniProt Q8TAC2); assay: biochemical; conditions: read-out: Activity (% Control)
OTUD6B = OTUD6B (Homo sapiens, UniProt Q8N6M0); assay: biochemical; conditions: read-out: Activity (% Control)
CDK18/cyclinY(h) = CDK18/cyclinY(h) (Homo sapiens, UniProt Q07002); assay: biochemical
GRK2(h) = GRK2(h) (Homo sapiens, UniProt P25098); assay: biochemical
Jurkat = assay: cells; conditions: Homo sapiens, 72 h, read-out: antiproliferative effect

CC(C)C[C@H](NC(=O)C1(C(F)(F)F)CCCCC1)C(=O)Nc1nnc(Cc2ccc(C#N)cc2)s1 [Compound 22, CC(C)C[C@H](NC(=O)C1(CCCCC1)C(F)(F)F)C(=O)Nc2nnc(Cc3ccc(cc3)C#N)s2]
inhibition at 10 µM (CaMKIIbeta(h)): 1.16% | inhibition at 10 µM (CLK4(h)): -7.17% | inhibition at 10 µM (MST4(h)): 3.88% | inhibition at 10 µM (MKK3(h)): 1.89% | inhibition at 10 µM (CaMKIgamma(h)): 10.9% | inhibition at 10 µM (ACK1(h)): -3.45% | inhibition at 10 µM (Haspin(h)): 11% | inhibition at 10 µM (Lck(h)): -8.47% | inhibition at 10 µM (MRCKbeta(h)): 0.48% | inhibition at 10 µM (PKBbeta(h)): 9.96% | inhibition at 10 µM (Flt1(h)): -10.7% | inhibition at 10 µM (CDK7/cyclinH/MAT1(h)): -2.13% | % Inh. [1]: -3% | inhibition at 10 µM (PRK1(h)): 5.48% | inhibition at 10 µM (Syk(h)): 8.25% | inhibition at 10 µM (TBK1(h)): -1.29% | inhibition at 10 µM (EphA3(h)): -27.2% | remaining activity at 1 µM (USP9X [2]): 101% | remaining activity at 10 µM (USP9X [2]): 99% | remaining activity at 10 µM (USP9X [3]): 97% | remaining activity at 50 µM (USP9X [3]): 97% | inhibition at 10 µM (Hck(h) activated): 7.68% | remaining activity at 1 µM (USP17): 90% | remaining activity at 10 µM (USP17): 88% | inhibition at 10 µM (Mnk2(h)): 28.7% | inhibition at 10 µM (WNK3(h)): -4.01% | inhibition at 10 µM (MARK3(h)): 2.14% | inhibition at 10 µM (PKBgamma(h)): -0.27% | inhibition at 10 µM (TLK1(h)): 3.93% | NF-κB activation (in words) (NF-κB activation): mildly increased cellular NF-κB levels at 10 μM; also recorded: did not show substantial cellular activity | inhibition at 10 µM (Aurora-C(h)): -2.91% | inhibition at 10 µM (TSSK2(h)): 16.4% | inhibition at 10 µM (CK1delta(h)): -2.63% | inhibition at 10 µM (CDK5/p25(h)): 1.49% | inhibition at 10 µM (Txk(h)): -7.12% | inhibition at 10 µM (JAK3(h)): 3.97% | inhibition at 10 µM (Plk1(h)): 5.71% | inhibition at 10 µM (Ros(h)): 2.33% | inhibition at 10 µM (NEK11(h)): 3.19% | inhibition at 10 µM (FGFR4(h)): -10.5% | remaining activity at 1 µM (JOSD2): 98% | remaining activity at 10 µM (JOSD2): 110% | remaining activity at 1 µM (OTUD6B): 94% | remaining activity at 10 µM (OTUD6B): 100% | inhibition at 10 µM (CDK18/cyclinY(h)): 2.07% | inhibition at 10 µM (GRK2(h)): -0.15% | IC50 (Jurkat): > 30 µM

CC(C)C[C@@H](NC(=O)C1(C(F)(F)F)CCCCC1)C(=O)Nc1nnc(Cc2ccc(C#N)cc2)s1 [Compound 21, N-[(1R)-1-[[5-[(4-Cyanophenyl)methyl]-1,3,4-thiadiazol-2-yl]carbamoyl]-3-methyl-butyl]-1-(trifluoromethyl)cyclohexanecarboxamide]
inhibition at 10 µM (CaMKIIbeta(h)): 7.19% | inhibition at 10 µM (CLK4(h)): 0.91% | inhibition at 10 µM (MST4(h)): 6.75% | inhibition at 10 µM (MKK3(h)): 4.95% | inhibition at 10 µM (CaMKIgamma(h)): 10.5% | inhibition at 10 µM (ACK1(h)): -2.92% | inhibition at 10 µM (Haspin(h)): 9.87% | inhibition at 10 µM (Lck(h)): 3.09% | inhibition at 10 µM (MRCKbeta(h)): 6.66% | inhibition at 10 µM (PKBbeta(h)): 6.13% | inhibition at 10 µM (Flt1(h)): -5.51% | inhibition at 10 µM (CDK7/cyclinH/MAT1(h)): 4.08% | % Inh. [1]: -1% | inhibition at 10 µM (PRK1(h)): 2.46% | inhibition at 10 µM (Syk(h)): 21.1% | inhibition at 10 µM (TBK1(h)): -1.33% | inhibition at 10 µM (EphA3(h)): -9.71% | remaining activity at 1 µM (USP9X [2]): 97% | remaining activity at 10 µM (USP9X [2]): 108% | remaining activity at 10 µM (USP9X [3]): 95% | remaining activity at 50 µM (USP9X [3]): 97% | inhibition at 10 µM (Hck(h) activated): -0.71% | remaining activity at 1 µM (USP17): 93% | remaining activity at 10 µM (USP17): 97% | inhibition at 10 µM (Mnk2(h)): 10.1% | inhibition at 10 µM (WNK3(h)): -17.6% | inhibition at 10 µM (MARK3(h)): 0.57% | inhibition at 10 µM (PKBgamma(h)): -0.64% | inhibition at 10 µM (TLK1(h)): 4.27% | EC50 (NF-κB activation; Homo sapiens, HEK-293T, read-out: NF-κB activation EC50): 0.017 µM | inhibition at 10 µM (Aurora-C(h)): -2.87% | inhibition at 10 µM (TSSK2(h)): 15.1% | inhibition at 10 µM (CK1delta(h)): 9.09% | inhibition at 10 µM (CDK5/p25(h)): -2.47% | inhibition at 10 µM (Txk(h)): -39.2% | inhibition at 10 µM (JAK3(h)): 4.23% | inhibition at 10 µM (Plk1(h)): 1.06% | inhibition at 10 µM (Ros(h)): 0.5% | inhibition at 10 µM (NEK11(h)): -2.03% | inhibition at 10 µM (FGFR4(h)): -10.4% | remaining activity at 1 µM (JOSD2): 113% | remaining activity at 10 µM (JOSD2): 113% | remaining activity at 1 µM (OTUD6B): 104% | remaining activity at 10 µM (OTUD6B): 92% | inhibition at 10 µM (CDK18/cyclinY(h)): 3.5% | inhibition at 10 µM (GRK2(h)): 5.48% | IC50 (Jurkat): > 30 µM
